Data reported in ChEMBL document CHEMBL1138144, “1-(4-Methylphenyl)-2-pyrrolidin-1-yl-pentan-1-one (Pyrovalerone) analogues: a promising class of monoamine uptake inhibitors” (J Med Chem, 2006).

Protein sequences, listed by entry. Tags and fused reporters are not part of them. Lines headed by an entry give the natural chain unless they say otherwise; changes in a name come on top.
UniProt Q01959, whole entry: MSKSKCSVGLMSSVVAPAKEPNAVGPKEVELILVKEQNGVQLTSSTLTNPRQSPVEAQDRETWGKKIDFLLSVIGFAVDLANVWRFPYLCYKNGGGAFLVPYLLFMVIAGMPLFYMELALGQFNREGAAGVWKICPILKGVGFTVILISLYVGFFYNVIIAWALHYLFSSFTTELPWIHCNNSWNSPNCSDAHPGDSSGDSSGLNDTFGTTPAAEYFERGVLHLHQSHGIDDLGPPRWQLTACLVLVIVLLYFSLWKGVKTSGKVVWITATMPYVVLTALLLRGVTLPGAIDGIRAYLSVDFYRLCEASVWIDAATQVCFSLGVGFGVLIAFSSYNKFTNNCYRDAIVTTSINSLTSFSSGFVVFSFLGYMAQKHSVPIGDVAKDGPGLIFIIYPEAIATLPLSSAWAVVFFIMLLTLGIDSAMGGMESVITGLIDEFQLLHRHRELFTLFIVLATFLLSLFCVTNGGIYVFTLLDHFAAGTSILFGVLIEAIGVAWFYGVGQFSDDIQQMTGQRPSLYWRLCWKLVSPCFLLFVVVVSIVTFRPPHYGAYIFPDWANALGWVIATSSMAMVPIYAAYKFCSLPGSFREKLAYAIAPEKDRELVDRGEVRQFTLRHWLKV
UniProt P28335: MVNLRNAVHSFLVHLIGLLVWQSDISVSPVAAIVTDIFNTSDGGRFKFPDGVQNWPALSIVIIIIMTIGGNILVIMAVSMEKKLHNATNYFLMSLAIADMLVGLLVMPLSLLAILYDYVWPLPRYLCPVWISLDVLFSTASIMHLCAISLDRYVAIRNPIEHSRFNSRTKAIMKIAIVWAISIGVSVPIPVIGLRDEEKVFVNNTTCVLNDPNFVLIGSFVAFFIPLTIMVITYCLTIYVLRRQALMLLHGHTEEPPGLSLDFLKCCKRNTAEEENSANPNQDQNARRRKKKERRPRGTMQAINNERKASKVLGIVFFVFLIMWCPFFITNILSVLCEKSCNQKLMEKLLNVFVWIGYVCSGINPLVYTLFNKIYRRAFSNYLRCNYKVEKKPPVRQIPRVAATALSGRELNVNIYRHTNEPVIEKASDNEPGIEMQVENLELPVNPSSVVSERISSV
UniProt P14416, whole entry: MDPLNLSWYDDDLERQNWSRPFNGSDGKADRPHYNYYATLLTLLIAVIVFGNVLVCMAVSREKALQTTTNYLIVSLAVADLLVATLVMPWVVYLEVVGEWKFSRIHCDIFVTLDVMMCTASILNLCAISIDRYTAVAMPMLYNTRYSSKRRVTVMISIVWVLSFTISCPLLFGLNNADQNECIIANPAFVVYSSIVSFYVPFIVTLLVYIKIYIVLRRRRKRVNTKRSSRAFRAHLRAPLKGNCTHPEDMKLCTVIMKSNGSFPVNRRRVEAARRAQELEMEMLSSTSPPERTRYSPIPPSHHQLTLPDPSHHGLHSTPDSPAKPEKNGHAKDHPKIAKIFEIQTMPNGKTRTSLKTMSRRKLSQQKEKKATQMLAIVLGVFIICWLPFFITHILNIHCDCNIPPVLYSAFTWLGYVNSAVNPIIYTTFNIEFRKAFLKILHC
UniProt P08908, whole entry: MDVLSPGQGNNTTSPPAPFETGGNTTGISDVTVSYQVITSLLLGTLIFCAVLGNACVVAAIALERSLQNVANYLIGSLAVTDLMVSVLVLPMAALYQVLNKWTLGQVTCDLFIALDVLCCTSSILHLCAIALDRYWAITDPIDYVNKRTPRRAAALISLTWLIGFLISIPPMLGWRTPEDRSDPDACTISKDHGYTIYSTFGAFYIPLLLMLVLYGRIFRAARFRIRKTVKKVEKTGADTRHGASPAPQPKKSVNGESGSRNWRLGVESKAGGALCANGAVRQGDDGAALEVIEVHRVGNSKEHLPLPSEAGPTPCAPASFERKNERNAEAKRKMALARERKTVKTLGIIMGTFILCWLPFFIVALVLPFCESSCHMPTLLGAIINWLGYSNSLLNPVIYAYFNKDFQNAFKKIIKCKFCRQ

Columns and labels:
[1] = target: T1, Sodium-dependent dopamine transporter (Homo sapiens, UniProt Q01959); test: Displacement of [125I]RTI-55 from human DAT expressed in HEK293 cells; format: cell-based
In short: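 Membranes from HEK293 cells expressing hDAT or hSERT, grown to 80% confluence, lysed in 2 mM HEPES/1 mM EDTA, spun and resuspended in 0.32 M sucrose. About 10–15 µg protein preincubated 10 min with compound in Krebs-HEPES pH 7.4 (0.1% DMSO final). [125I]RTI-55 (40–80 pM final) then added for 90 min at 25°C. Filtered on GF/C. Non-specific binding: 5 µM mazindol (DAT) or 5 µM imipramine (SERT). Duplicates, 2–3 experiments, IC50 converted to Ki by Cheng-Prusoff.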

[2] = target: T1, Sodium-dependent dopamine transporter; test: Inhibition of [3H] dopamine uptake into human DAT expressed in HEK293 cells; format: functional, cell-based
In short: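 Confluent HEK293 cells expressing hDAT or hSERT, scraped into Krebs-HEPES. Preincubated 10 min at 25°C with compound (0.1% DMSO final). Uptake started with [3H]dopamine or [3H]serotonin (20 nM final) and stopped after 10 min by filtration on PEI-soaked GF/C filters. Non-specific uptake: 5 µM mazindol (DAT) or 5 µM imipramine (SERT). IC50 from triplicate 6-concentration curves, 2–3 independent determinations.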

[3] = target: 5-hydroxytryptamine receptor 2C (Homo sapiens, UniProt P28335); test: Inhibitory activity against 5HT1C
D(2) dopamine receptor = D(2) dopamine receptor (Homo sapiens, UniProt P14416); test: Inhibitory activity against dopamine D2
[4] = target: 5-hydroxytryptamine receptor 1A (Homo sapiens, UniProt P08908); test: Inhibitory activity against 5HT1A

| Compound | pKi [1] | pIC50 [2] | pIC50 [3] | pIC50 (D(2) dopamine receptor) | pIC50 [4] |
| --- | --- | --- | --- | --- | --- |
| CCC(C(=O)c1ccc(Cl)c(Cl)c1)N1CCCC1 (stereo unspecified) | 7.54 | 7.26 |  |  |  |
| CCCC(C(=O)c1ccc([N+](=O)[O-])cc1)N1CCCC1 (stereo unspecified) |  |  | < 5.00 | < 5.00 | < 5.00 |
| CCC[C@H](C(=O)c1ccc(C)cc1)N1CCCC1 | 5.88 |  |  |  |  |

pIC50, pKi: −log10 of the molar value.
